Measurements from publication PMC6920469 (Scientific Reports, 2019).

System: CLB-BAR cells
Assay: Inhibition of ALK activity and downstream signaling (immunoblot), CLB-BAR
Type: cell-based, human
Details: 200 or 300 nM, 1 h

C[C@@H](Oc1cc(-c2cnn(C3CCNCC3)c2)cnc1N)c1c(Cl)ccc(F)c1Cl [crizotinib, reference compound]
Phosphorylation of ALK and downstream signaling targets (immunoblot): inhibit phosphorylation of downstream signaling targets of ALK
